Reference: US20240150294A1, “ESTROGEN RECEPTOR ALPHA ANTAGONISTS AND USES THEREOF” (The University of Chicago, priority 2021, published 2024)

By UniProt entry, the sequences of proteins in these tests, tags left out.
UniProt P03372, whole entry: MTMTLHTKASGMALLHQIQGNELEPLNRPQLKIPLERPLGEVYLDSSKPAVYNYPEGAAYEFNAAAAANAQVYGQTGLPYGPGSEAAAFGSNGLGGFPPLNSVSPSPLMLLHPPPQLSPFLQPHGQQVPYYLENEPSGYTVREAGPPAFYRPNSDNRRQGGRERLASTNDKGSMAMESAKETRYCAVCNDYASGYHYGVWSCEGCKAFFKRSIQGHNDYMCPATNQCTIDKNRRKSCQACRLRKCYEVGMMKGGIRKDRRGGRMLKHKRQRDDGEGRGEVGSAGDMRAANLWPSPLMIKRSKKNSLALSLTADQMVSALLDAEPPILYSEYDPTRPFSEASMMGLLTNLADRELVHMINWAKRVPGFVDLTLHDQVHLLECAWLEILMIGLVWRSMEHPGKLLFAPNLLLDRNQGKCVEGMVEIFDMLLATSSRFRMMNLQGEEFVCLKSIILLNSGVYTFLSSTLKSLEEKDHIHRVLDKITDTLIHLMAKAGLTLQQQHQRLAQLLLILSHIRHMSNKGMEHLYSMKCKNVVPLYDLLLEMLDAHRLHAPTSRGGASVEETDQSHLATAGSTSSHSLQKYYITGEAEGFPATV

Target: ERα (Homo sapiens, UniProt P03372)
Experiment: Transcriptional reporter gene assay (estrogen response element-GFP) in MCF7 cells
Format: cell-based
Settings: ERE-controlled green fluorescent protein, reduction in fluorescence

| SMILES | IC50 [nM] |
| --- | --- |
| C[C@H]1CCCN1CCOc1ccc(C2c3ccc(O)cc3CC3(CC3)N2C(=O)c2ccccc2)cc1 (some centres unmarked) | 73.7 |
| C[C@@H]1CCCN1CCOc1ccc(C2c3ccc(O)cc3CC3(CC3)N2C(=O)c2ccccc2)cc1 (some centres unmarked) | 13.5 |
